Measured values reported in ChEMBL document CHEMBL2203183, “Synthesis of N-phenyl-N-(3-(piperidin-1-yl)propyl)benzofuran-2-carboxamides as new selective ligands for sigma receptors” (Bioorg Med Chem, 2012).

System: PC-12
Assay: Selectivity ratio of Ki for sigma 2 receptor in rat PC12 cell membrane to Ki for sigma 1 receptor in rat brain membrane
Format: cell-based
Procedure, shortened: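 Sigma-1: rat brain membranes, 3 nM [3H]pentazocine, 37 °C, 2.5 h. Sigma-2: PC12 homogenate, 1 nM [3H]DTG, room temperature, 2 h. […] Filtration and scintillation counting; IC50 from logistic fit converted to Ki by Cheng-Prusoff. Ratio is sigma-2 Ki over sigma-1 Ki.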

COc1cc2oc(C(=O)N(CCCN3CCCCC3)c3ccccc3)c(C)c2cc1OC
Ratio Ki: 19
